Measurements from paper PMC6159918 (Peptides, 2018).

Assays:
GRPR = type: cell-based, human; settings: GRP 1 μM; Balb-3T3 BRS-3 transfected; control 2487 ± 185
human BRS-3-receptor = target: T1, human BRS-3-receptor (Homo sapiens, UniProt P32247); assay: p42/44 MAPK phosphorylation; type: cell-based; settings: NCI-H510
T1 sequence (P32247 1-399): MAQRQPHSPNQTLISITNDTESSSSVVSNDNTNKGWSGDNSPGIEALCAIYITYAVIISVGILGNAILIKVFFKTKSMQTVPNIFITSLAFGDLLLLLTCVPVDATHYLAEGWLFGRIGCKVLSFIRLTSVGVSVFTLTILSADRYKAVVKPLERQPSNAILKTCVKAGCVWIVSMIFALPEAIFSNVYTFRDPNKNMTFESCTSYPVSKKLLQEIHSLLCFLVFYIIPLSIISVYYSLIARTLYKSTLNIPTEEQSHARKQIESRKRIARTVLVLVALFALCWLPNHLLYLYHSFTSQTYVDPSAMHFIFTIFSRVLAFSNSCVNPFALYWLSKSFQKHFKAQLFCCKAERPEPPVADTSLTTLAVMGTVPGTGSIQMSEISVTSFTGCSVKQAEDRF

p42/44 phosphorylation at 10 nM relative to 100 nM MK-5046 (human BRS-3-receptor) [fold]	Molecule	[3H]IP (DPM) (GRPR)
	gastrin-releasing peptide [GRP]	2537 ± 769
1.3	O[C@@](Cc1nc(CC2(C(F)(F)F)CC2)c[nH]1)(c1ccc(-n2cccn2)cc1)C(F)(F)F [MK-5046, (2S)-1,1,1-trifluoro-2-[4-(1H-pyrazol-1-yl)phenyl]-3-(4-[[1-(trifluoromethyl)cyclopropyl]methyl]-1H-imidazol-2-yl)propan-2-ol]	
